High-throughput results: PubChem, Broad Institute
Yeast UUG start-1: alters start codon recognition fidelity in yeast; AID 602363; activity score, % at 18.7 µM; 350,000 tested, 0.13% active; S. cerevisiae UUG-firefly luciferase reporter, luminescence/redox ratio;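 active means replicate mean at a twofold rise or more, about +100% in these data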;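 further: firefly luciferase made from a UUG start codon reports start codon fidelity; reporter light over untreated wells divided by growth signal over untreated wells; some hits fall short of that in this replicate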
Wnt bcat act: activates Wnt/beta-catenin signaling in a reporter cell assay. AID 743398. activation, % at 9.35 µM. activator, plate reader. actives 1.2% (n = 300,000); in the data active = activation above about 30%, passing the limit was not always enough
miR122 inh: miR-122 inhibition in Huh7 cells | Huh7 miR-122 Renilla luciferase sensor, 48 h; neutral wells = 0, positive control = 100 | activation (reporter increase), % at 12.5 µM | actives 0.3% (n = 340,000);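 active = mean replicate activation score at least 90 and every replicate individually at or above 90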;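 also: higher luciferase means less miR-122 activity so hits act as miR-122 inhibitors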
MITF TRPM1 HTS: increases MITF-driven TRPM1 promoter luciferase signal; SK-MEL-5 TRPM1-promoter luciferase, 24 h; % of positive control, neutral wells = 0; activation, % at 12.5 µM; actives 0.75% (n = 300,000); AID 588334;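 active = mean activation of at least 80% with every replicate also reaching 80%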
esBAF inh: inhibitors of esBAF chromatin remodeling in mouse ES cells | Bmi1-luciferase knock-in reporter, 24 h; 100% = twice the neutral-well signal | reporter increase, % at 12.5 µM | actives 2% (n = 350,000) | AID 602393; in the data active = activation above about 40%;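 also: a rise in the Bmi1 reporter signal indicates esBAF inhibition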
PglD DTNB: PglD (C. jejuni) enzyme inhibition | inhibition, % at 12.5 µM | actives 0.098% (n = 360,000) | purified PglD enzyme, DTNB colorimetric CoA detection | AID 602405; in the data active = inhibition above about 16%, passing the limit was not always enough
Yeast UUG start-2: alters UUG start codon use in yeast. S. cerevisiae UUG-start firefly luciferase, luminescence, 4 h; 100% means double the DMSO signal. 540 tested, under 10 active. activation, % at 38 µM. shares compounds with Yeast UUG start-1;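 active = signal increase whose fitted curve reaches an absolute level of 40 at a concentration under 10 µM; inactive = activity opposite to the expected increase, or the rest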
Large screens that a line does not name were inactive (follow-up assays come after a bar, where they were run). Rows were chosen to be rich in hits. Some 2.8% of all compounds tested hit in one or more screens of this group.

O=C(Nc1ccccc1F)N[C@H]1CC[C@H](CCNS(=O)(=O)c2ccc(F)cc2)O[C@H]1CO	Yeast UUG start-1 154 (no result: Wnt bcat act, miR122 inh, MITF TRPM1 HTS) | Yeast UUG start-2 inactive
O=C(NCC[C@H]1CC[C@H](NS(=O)(=O)c2cccc(F)c2)[C@H](CO)O1)C1CCCC1	none (no result: Wnt bcat act, MITF TRPM1 HTS)
Cc1ccc(S(=O)(=O)N[C@@H]2CC[C@H](CCNS(=O)(=O)Cc3ccccc3)O[C@@H]2CO)cc1	none (no result: Wnt bcat act, miR122 inh, MITF TRPM1 HTS)
Cc1ccc(S(=O)(=O)N[C@H]2CC[C@H](CCNS(=O)(=O)Cc3ccccc3)O[C@@H]2CO)cc1	Yeast UUG start-1 148 (no result: Wnt bcat act, miR122 inh, MITF TRPM1 HTS) | Yeast UUG start-2 inactive
COc1ccc(NC(=O)Nc2ccc3c(c2)C(=O)N([C@@H](C)CO)C[C@@H](C)[C@H](CN(C)C(=O)Nc2c(C)noc2C)OCCCC[C@@H](C)O3)cc1	none (no result: Wnt bcat act, MITF TRPM1 HTS)
CCCNC(=O)C[C@H]1CC[C@H]2[C@H](COc3ccc(NC(=O)c4cccs4)cc3C(=O)N2C)O1	none (no result: Wnt bcat act, MITF TRPM1 HTS)
C[C@@H]1CN([C@@H](C)CO)C(=O)c2c(c3ccccc3n2C)-c2ccccc2CO[C@@H]1CN(C)C(=O)Nc1ccc(F)cc1	none (no result: Yeast UUG start-1, Wnt bcat act, miR122 inh, MITF TRPM1 HTS)
CCOc1ccc(C(C)=O)cc1CSc1nc(C)cc(C)n1	Yeast UUG start-1 213 | Yeast UUG start-2 inactive
O=C(Cc1ccccc1)N1C[C@@H]2[C@H](c3ccccc31)[C@H](CO)N2C(=O)Cc1ccccc1	none (no result: Wnt bcat act, MITF TRPM1 HTS)
O=C1COc2ccccc2N1Cc1ccc(Cl)cc1	Yeast UUG start-1 167 | Yeast UUG start-2 inactive
O=C(C[C@H]1CC[C@@H]2[C@H](COC[C@H](O)CN2C(=O)c2ccccc2)O1)Nc1ccccc1	none (no result: Yeast UUG start-1, Wnt bcat act, MITF TRPM1 HTS)
C=CCN(c1ccccc1)S(=O)(=O)c1cccc(C(=O)O)c1	Yeast UUG start-1 519 (no result: Wnt bcat act) | Yeast UUG start-2 inactive
C=CCN(c1ccccc1)S(=O)(=O)c1cccc(C(=O)NNC(=O)c2ccccc2O)c1	none
Cc1c(C(=O)NCc2ccc3c(c2)OCO3)cccc1[N+](=O)[O-]	none (no result: Yeast UUG start-1, miR122 inh, esBAF inh, PglD DTNB)
COc1c(C)cccc1C(=O)NCc1ccc2c(c1)OCO2	Yeast UUG start-1 active | Yeast UUG start-2 inactive
CC(C)N(C[C@H]1[C@H](c2ccccc2)[C@H](CO)N1S(C)(=O)=O)C(=O)CN(C)C	none (no result: Wnt bcat act, MITF TRPM1 HTS)
CC(C)N(C[C@H]1[C@H](c2ccccc2)[C@@H](CO)N1S(C)(=O)=O)C(=O)CN(C)C	Yeast UUG start-1 164 (no result: Wnt bcat act, MITF TRPM1 HTS) | Yeast UUG start-2 inactive
CC(C)C[C@@H](CN)NC(=O)c1nc[nH]c1C(=O)N[C@@H](Cc1c[nH]c2ccccc12)C(=O)CNC[C@H](C)NC(=O)c1nc[nH]c1C(=O)N[C@@H](C)C(=O)O	Yeast UUG start-1 166 | Yeast UUG start-2 inactive
CC(C)C[C@@H](CN)NC(=O)c1nc[nH]c1C(=O)N[C@@H](C)C(=O)CNC[C@H](C)NC(=O)c1nc[nH]c1C(=O)N[C@@H](CC(=O)O)C(=O)O	none
CC(C)C[C@@H](CN)NC(=O)c1nc[nH]c1C(=O)N[C@@H](Cc1ccccc1)C(=O)CNC[C@H](C)NC(=O)c1nc[nH]c1C(=O)N[C@@H](C)C(=O)O	none
CC(C)C[C@@H](CNCC(=O)[C@H](CC(=O)O)NC(=O)c1[nH]cnc1C(=O)N[C@H](CN)CC(C)C)NC(=O)c1nc[nH]c1C(=O)N[C@@H](C)C(=O)O	Yeast UUG start-1 138 | Yeast UUG start-2 inactive
CC(C)C[C@@H](CNCC(=O)[C@H](CC(C)C)NC(=O)c1[nH]cnc1C(=O)N[C@@H](C)CN)NC(=O)c1nc[nH]c1C(=O)N[C@@H](C)C(=O)O	Yeast UUG start-1 135 | Yeast UUG start-2 inactive
CC(C)C[C@@H](CN)NC(=O)c1nc[nH]c1C(=O)N[C@@H](C)C(=O)CNC[C@H](CC(C)C)NC(=O)c1nc[nH]c1C(=O)N[C@@H](CC(=O)O)C(=O)O	none
N/C(=N\S(=O)(=O)c1ccc(Cl)s1)c1ccccc1	Yeast UUG start-1 117 | Yeast UUG start-2 inactive
CCS(=O)(=O)/N=C(\N)c1ccccc1	none
O=C(c1ccc(Cn2c(=O)[nH]c3ccccc3c2=O)cc1)N1CCN(c2ccccc2)CC1	Yeast UUG start-1 480 (no result: MITF TRPM1 HTS) | Yeast UUG start-2 inactive
CC(C)(O)C#Cc1cccc(-c2nc(C(=O)N3CCN(Cc4ccccc4)CC3)cc3c2[C@@H](CCO)N(S(=O)C(C)(C)C)C3)c1 (some centres undefined)	none (no result: Yeast UUG start-1, Wnt bcat act, miR122 inh, MITF TRPM1 HTS)
Cc1c(C(=O)OCC(=O)c2ccc3c(c2)OCCO3)oc2ccccc12	none | Yeast UUG start-2 inactive
O=C(C[C@H]1CC[C@@H](NS(=O)(=O)c2ccc(F)cc2)[C@@H](CO)O1)NCCc1ccncc1	none (no result: Wnt bcat act, miR122 inh, MITF TRPM1 HTS)
Cc1noc(C)c1NC(=O)N(C)C[C@H]1OCCCC[C@@H](C)Oc2ccc(NS(=O)(=O)c3ccc(F)cc3)cc2C(=O)N([C@@H](C)CO)C[C@H]1C	none (no result: Wnt bcat act, MITF TRPM1 HTS)
C[C@@H]1CCCCO[C@H](CN(C)Cc2ccc(C(F)(F)F)cc2)[C@H](C)CN([C@@H](C)CO)C(=O)c2cc(NC(=O)Nc3ccc(F)cc3)ccc2O1	none (no result: Wnt bcat act, MITF TRPM1 HTS)
C[C@H]1CCCCO[C@H](CN(C)C(=O)c2ccccc2)[C@@H](C)CN([C@@H](C)CO)C(=O)c2cc(NC(=O)CCC(F)(F)F)ccc2O1	Yeast UUG start-1 128 (no result: Wnt bcat act, MITF TRPM1 HTS) | Yeast UUG start-2 inactive
C[C@H](CO)N1C[C@H](C)[C@H](CN(C)Cc2ccccc2)OCCCC[C@H](C)Oc2ccc(NS(=O)(=O)c3ccc(F)cc3)cc2C1=O	Yeast UUG start-1 235 (no result: Wnt bcat act, MITF TRPM1 HTS) | Yeast UUG start-2 inactive
C[C@H](CO)N1C[C@H](C)[C@H](CN(C)Cc2ccc(C(F)(F)F)cc2)OCCCC[C@H](C)Oc2ccc(NC(=O)Nc3ccc(F)cc3)cc2C1=O	Yeast UUG start-1 120 (no result: Wnt bcat act, MITF TRPM1 HTS) | Yeast UUG start-2 inactive
Cc1noc(C)c1NC(=O)N(C)C[C@@H]1OCCCC[C@H](C)Oc2ccc(NS(=O)(=O)c3ccc(F)cc3)cc2C(=O)N([C@@H](C)CO)C[C@@H]1C	Yeast UUG start-1 183 (no result: Wnt bcat act, MITF TRPM1 HTS) | Yeast UUG start-2 inactive
CO[C@@H]1CN(C)C(=O)c2ccc(NC(=O)NC3CCCCC3)cc2OC[C@@H](C)N(CC2CCOCC2)C[C@H]1C	none (no result: Yeast UUG start-1, Wnt bcat act, miR122 inh, MITF TRPM1 HTS)
CCCC(=O)Nc1ccc2c(c1)C(=O)N(C)C[C@@H](OC)[C@H](C)CN(C(=O)Cc1cccnc1)[C@H](C)CO2	none (no result: Wnt bcat act, miR122 inh, MITF TRPM1 HTS)
C[C@H](CO)N1C[C@H](C)[C@H](CN(C)S(=O)(=O)c2ccc(F)cc2)Oc2ccc(NC(=O)Cc3ccccc3)cc2C1=O	none (no result: Wnt bcat act, MITF TRPM1 HTS)
Cc1ccc(S(=O)(=O)N(C)C[C@@H]2Oc3ccc(NC(=O)Cn4cnnn4)cc3C(=O)N([C@H](C)CO)C[C@@H]2C)cc1	none (no result: Wnt bcat act, MITF TRPM1 HTS)
CC(C)NC(=O)Nc1cccc2c1O[C@H](CN(C)Cc1ccccc1)[C@H](C)CN([C@@H](C)CO)C2=O	none (no result: Wnt bcat act, MITF TRPM1 HTS)
C[C@H](CO)N1C[C@H](C)[C@@H](CN(C)CC2CCCCC2)OCCCC[C@H](C)Oc2ccc(NS(=O)(=O)c3cn(C)cn3)cc2C1=O	Yeast UUG start-1 136 (no result: Wnt bcat act, MITF TRPM1 HTS) | Yeast UUG start-2 inactive
